Test results from patent US20240166603A1, “Method of Treating Cancer With Atpenin A5 Derviatives” (Texas Tech University System, priority 2018, published 2024).

By UniProt entry, the sequences of proteins in these tests, tags left out. Where a name states a change or a piece, a line headed by the entry shows the natural chain unless it says otherwise.
UniProt P21913: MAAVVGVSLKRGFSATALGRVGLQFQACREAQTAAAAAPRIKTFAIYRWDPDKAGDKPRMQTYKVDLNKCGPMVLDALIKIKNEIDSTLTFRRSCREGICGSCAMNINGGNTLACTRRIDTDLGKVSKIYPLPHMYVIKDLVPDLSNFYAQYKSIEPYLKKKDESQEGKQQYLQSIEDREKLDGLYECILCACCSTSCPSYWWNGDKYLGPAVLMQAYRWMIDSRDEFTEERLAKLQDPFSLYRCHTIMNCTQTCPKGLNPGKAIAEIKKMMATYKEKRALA
UniProt Q641Z9: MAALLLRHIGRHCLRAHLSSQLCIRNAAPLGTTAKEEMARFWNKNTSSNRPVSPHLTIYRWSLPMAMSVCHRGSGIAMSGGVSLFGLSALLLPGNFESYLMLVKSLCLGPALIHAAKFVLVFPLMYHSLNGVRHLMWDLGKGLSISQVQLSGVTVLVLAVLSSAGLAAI
UniProt Q6PCT8: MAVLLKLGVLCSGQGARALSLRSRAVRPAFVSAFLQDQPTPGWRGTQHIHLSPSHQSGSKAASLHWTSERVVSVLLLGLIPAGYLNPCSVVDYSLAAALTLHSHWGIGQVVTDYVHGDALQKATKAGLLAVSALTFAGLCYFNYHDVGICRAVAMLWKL

Biological target: mitochondrial complex II (CII) (Rattus norvegicus, UniProt P21913+Q641Z9+Q6PCT8)
Assay: Complex II inhibition assay, isolated rat heart mitochondria
Details: LLE = pIC50-ClogP

CCCCCCCCCC(=O)c1c(O)nc(OC)c(OC)c1O
LLE (Ligand-Lipophilicity Efficiency): 4.69
